One substance from patent US10316050B2, “PT (IV) complexes containing 4,4′-disubstituted-2,2′-bipyridyl and their use in cancer therapy” (THE BOARD OF REGENTS OF THE NEVADA SYSTEM OF HIGHER …, priority 2014, dated 2019) can be followed below.

The nature of this data set: Solubility in DMSO and common organic solvents. In kind it is physicochemical. The method, then: Coordination of the axial ligands to the Pt center improved the solubility of the complexes in common organic solvents. DMSO solutions of the Pt(IV) complexes with concentrations of 10 mM or higher were obtainable, whereas the Pt(II) can only be made at the highest concentration of 5 mM.

With “[Pt(IV)Cl2(OAc)2(4,4′-dioctyloxy-2,2′-bipyridine)] [Pt(IV)-8C]”, the “solubility in DMSO and other common organic solvents (in words)” value is “markedly improved compared to Pt(II)-8C”.
